Legend:
[1] = target: IRAK1 (Homo sapiens (Human), UniProt P51617); assay: Kd kinase binding assay IRAK1
[2] = target: PDGFRβ (Homo sapiens (Human), UniProt P09619); assay: biochemical; settings: 10 μM ATP

Sequences of proteins named here, by UniProt entry; tags and fusion partners are left off. Residues count along the entry.
UniProt P09619, 33-1106 limits assumed: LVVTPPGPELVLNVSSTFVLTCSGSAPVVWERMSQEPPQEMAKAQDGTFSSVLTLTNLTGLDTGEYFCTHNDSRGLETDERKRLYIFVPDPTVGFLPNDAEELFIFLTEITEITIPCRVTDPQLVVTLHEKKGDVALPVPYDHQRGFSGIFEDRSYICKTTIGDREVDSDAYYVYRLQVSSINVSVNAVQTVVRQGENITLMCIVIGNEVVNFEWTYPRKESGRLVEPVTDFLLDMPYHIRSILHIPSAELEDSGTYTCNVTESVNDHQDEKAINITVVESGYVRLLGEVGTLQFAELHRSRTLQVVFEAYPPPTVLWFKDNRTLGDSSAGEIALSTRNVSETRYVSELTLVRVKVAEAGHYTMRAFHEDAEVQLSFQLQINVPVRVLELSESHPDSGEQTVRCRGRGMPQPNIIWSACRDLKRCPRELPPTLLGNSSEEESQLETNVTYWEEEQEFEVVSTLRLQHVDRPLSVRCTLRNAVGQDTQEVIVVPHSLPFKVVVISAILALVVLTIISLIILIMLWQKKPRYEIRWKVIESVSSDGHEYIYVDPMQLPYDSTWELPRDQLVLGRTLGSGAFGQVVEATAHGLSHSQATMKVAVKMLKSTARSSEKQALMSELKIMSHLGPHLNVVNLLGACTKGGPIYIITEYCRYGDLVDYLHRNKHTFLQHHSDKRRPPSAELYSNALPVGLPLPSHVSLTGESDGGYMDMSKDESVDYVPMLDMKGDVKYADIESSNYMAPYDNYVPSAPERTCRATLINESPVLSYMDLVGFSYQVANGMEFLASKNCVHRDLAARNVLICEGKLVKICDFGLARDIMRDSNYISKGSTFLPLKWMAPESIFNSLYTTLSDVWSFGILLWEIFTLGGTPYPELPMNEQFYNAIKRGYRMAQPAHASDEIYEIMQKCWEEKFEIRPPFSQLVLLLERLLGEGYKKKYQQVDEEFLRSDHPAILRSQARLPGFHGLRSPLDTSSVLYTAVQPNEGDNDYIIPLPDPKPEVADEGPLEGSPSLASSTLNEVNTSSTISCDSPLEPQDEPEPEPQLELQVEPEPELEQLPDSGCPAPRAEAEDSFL

## COc1cc2ncc(-c3cccc(NC4CCNC4)n3)n2cc1-c1cccnc1 (stereo not drawn) [Compound I-22, 6-(7-methoxy-6-(pyridin-3-yl)imidazo[1,2-a]pyridin-3-yl)-N-(pyrrolidin-3-yl)pyridin-2-amine]
[1]
  Kd: 3.5 nM
[2]; IC50 PDGFRb, 10-dose IC50 mode
  IC50: 4.19 nM
[2]; IC50 PDGFRβ
  IC50: 3.57 nM

— patent US11254667B2 (priority 2016, dated 2022)
